Test results as given in patent US20140350029A1 (published 2014).

Target: T1, α1A (Homo sapiens, UniProt P35348)
T1 sequence (P35348 1-466): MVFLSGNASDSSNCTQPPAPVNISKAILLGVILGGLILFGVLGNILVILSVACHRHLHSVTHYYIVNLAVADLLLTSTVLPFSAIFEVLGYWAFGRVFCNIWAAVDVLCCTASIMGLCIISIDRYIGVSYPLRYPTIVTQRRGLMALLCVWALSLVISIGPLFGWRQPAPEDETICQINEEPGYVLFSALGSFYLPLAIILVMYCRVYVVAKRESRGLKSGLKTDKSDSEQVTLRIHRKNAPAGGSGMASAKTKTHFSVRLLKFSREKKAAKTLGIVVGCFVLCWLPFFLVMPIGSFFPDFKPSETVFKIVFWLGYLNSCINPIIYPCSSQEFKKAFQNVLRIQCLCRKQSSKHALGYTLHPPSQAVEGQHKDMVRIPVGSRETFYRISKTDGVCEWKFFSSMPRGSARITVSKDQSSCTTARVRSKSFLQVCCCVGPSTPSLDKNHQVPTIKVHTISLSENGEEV
Assay: biochemical

For `Cc1cc2c(s1)Nc1ccccc1N=C2N1CCN(C)CC1` [Olanzapine], which Ki is on record?
The Ki was 109 nM.
